US20250195530A1, “POLQ INHIBITORS” (ASTRAZENECA AB, priority 2022, published 2025)

Amino acid sequences for entries named in this document (tags omitted). Residues count along the entry.
UniProt O75417, 1780-2590: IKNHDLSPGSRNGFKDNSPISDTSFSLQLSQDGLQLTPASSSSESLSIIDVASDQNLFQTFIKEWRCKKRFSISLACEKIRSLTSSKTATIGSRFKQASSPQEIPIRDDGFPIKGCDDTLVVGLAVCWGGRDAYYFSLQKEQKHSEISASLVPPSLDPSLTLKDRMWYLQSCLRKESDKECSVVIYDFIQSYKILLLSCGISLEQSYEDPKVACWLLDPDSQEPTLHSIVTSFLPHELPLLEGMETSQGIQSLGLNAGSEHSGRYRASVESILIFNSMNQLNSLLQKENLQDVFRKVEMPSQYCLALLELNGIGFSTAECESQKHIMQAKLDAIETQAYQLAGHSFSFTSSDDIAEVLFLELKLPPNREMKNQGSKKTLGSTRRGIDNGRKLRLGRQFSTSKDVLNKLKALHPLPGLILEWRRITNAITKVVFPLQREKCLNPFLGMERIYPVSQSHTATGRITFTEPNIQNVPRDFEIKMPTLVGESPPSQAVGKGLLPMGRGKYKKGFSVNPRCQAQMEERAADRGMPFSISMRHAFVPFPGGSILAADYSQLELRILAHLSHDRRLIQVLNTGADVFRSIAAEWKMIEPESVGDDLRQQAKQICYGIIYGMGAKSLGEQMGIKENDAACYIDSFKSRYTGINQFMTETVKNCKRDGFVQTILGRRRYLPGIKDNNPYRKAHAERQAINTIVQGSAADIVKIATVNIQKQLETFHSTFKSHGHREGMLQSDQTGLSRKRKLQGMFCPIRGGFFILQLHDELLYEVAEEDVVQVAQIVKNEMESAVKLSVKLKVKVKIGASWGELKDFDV

Molecular target: isolated polymerase domain (I1780-V2590) of DNA polymerase theta (Polθ) (Homo sapiens (Human), UniProt O75417)
Assay: biochemical

| Structure (SMILES) | IC50 |
| --- | --- |
| CC1(Oc2ncnc3c2nc(-c2ccc(CC(N)=O)cc2Cl)n3Cc2ccc(C(F)(F)F)nc2)CC1 [Example T38, 2-(3-chloro-4-(6-(1-methylcyclopropoxy)-9-((6-(trifluoromethyl)pyridin-3-yl)methyl)-9H-purin-8-yl)phenyl)acetamide] | 126 nM |
| CC1(Oc2ncnc3c2nc(-c2ccc(OCCC(=O)O)cc2Cl)n3Cc2ccccc2Cl)CC1 [Example T88, 3-(3-chloro-4-(9-(2-chlorobenzyl)-6-(1-methylcyclopropoxy)-9H-purin-8-yl)phenoxy)propanoic acid] | 10 nM |
| CC1(Oc2ncnc3c2nc(-c2ccc(OCCCO)cc2Cl)n3Cc2cc(C(F)(F)F)ccn2)CC1 [Example T94, 3-(3-chloro-4-(6-(1-methylcyclopropoxy)-9-((4-(trifluoromethyl)pyridin-2-yl)methyl)-9H-purin-8-yl)phenoxy)propan-1-ol] | 5.01 nM |
| CC1(Oc2ncnc3c2nc(-c2ccc(CC(N)=O)cc2Cl)n3Cc2cncc(C#N)c2)CC1 [Example T39, 2-(3-chloro-4-(9-((5-cyanopyridin-3-yl)methyl)-6-(1-methylcyclopropoxy)-9H-purin-8-yl)phenyl)acetamide] | 50.1 nM |
| Cc1ccnc(Cn2c(-c3ccc(CC(=O)NC4CC4)cc3Cl)nc3c(OC4(C)CC4)ncnc32)c1 [Example T310, 2-(3-chloro-4-(6-(1-methylcyclopropoxy)-9-((4-methylpyridin-2-yl)methyl)-9H-purin-8-yl)phenyl)-N-cyclopropylacetamide] | 7.94 nM |
| CN1CCCC(Oc2ccc(-c3nc4c(OC5(C)CC5)ncnc4n3Cc3ccccc3)c(Cl)c2)CC1 (single isomer, unassigned) [Example D13, 9-benzyl-8-(2-chloro-4-((1-methylazepan-4-yl)oxy)phenyl)-6-(1-methylcyclopropoxy)-9H-purine] | 2.51 nM |
| Cc1ccnc(Cn2c(-c3ccc(C(=O)O)cc3Cl)nc3c(OC4(C)CC4)ncnc32)c1 [Example T13, 3-chloro-4-(6-(1-methylcyclopropoxy)-9-((4-methylpyridin-2-yl)methyl)-9H-purin-8-yl)benzoic acid] | 6.31 nM |
| COC(=O)Nc1ccc(-c2nc3c(OC4(C)CC4)ncnc3n2Cc2cc(C)ccn2)c(Cl)c1 [Example T62, methyl (3-chloro-4-(6-(1-methylcyclopropoxy)-9-((4-methylpyridin-2-yl)methyl)-9H-purin-8-yl)phenyl)carbamate] | 3.98 nM |
| CC1(Oc2ncnc3c2nc(-c2ccc(NCCC(=O)O)cc2Cl)n3Cc2cccc(Cl)c2)CC1 [Example T97, 3-((3-chloro-4-(9-(3-chlorobenzyl)-6-(1-methylcyclopropoxy)-9H-purin-8-yl)phenyl)amino)propanoic acid] | 5.01 nM |
| C[C@@H](CCOc1cccc(-c2nc3c(OC4(C)CC4)ncnc3n2Cc2cccc(Cl)c2)c1Cl)C(=O)O [Example T296, (S)-4-(2-chloro-3-(9-(3-chlorobenzyl)-6-(1-methylcyclopropoxy)-9H-purin-8-yl)phenoxy)-2-methylbutanoic acid] | 5.01 nM |
| Cc1ccnc(Cn2c(-c3ccc(CN4CC(O)C4)cc3Cl)nc3c(OC4(C)CC4)ncnc32)c1 [Example T209, 1-(3-chloro-4-(6-(1-methylcyclopropoxy)-9-((4-methylpyridin-2-yl)methyl)-9H-purin-8-yl)benzyl)azetidin-3-ol] | 5.01 nM |
| Cc1cc(OCCN2CCNCC2)ccc1-c1nc2c(OC(C)C)ncnc2n1Cc1ccccc1 [Example B2, 9-benzyl-6-isopropoxy-8-(2-methyl-4-(2-(piperazin-1-yl)ethoxy)phenyl)-9H-purine] | 2 nM |
| COc1cccc(Cn2c(-c3ccc(CC(N)=O)cc3Cl)nc3c(OC4(C)CC4)ncnc32)c1 [Example T105, 2-(3-chloro-4-(9-(3-methoxybenzyl)-6-(1-methylcyclopropoxy)-9H-purin-8-yl)phenyl)acetamide] | 7.94 nM |
| Cc1ncc(Cn2c(-c3ccc(OCCN4CCNCC4)cc3Cl)nc3c(OC4(C)CC4)ncnc32)s1 [Example T249, 5-((8-(2-chloro-4-(2-(piperazin-1-yl)ethoxy)phenyl)-6-(1-methylcyclopropoxy)-9H-purin-9-yl)methyl)-2-methylthiazole] | 20 nM |

Further lines, results first:

| IC50 | Structure (SMILES) |
| --- | --- |
| 5.01 nM | Cc1ccnc(Cn2c(-c3ccc(OCCN4CCCC4=O)cc3Cl)nc3c(OC4(C)CC4)ncnc32)c1 [Example T469, 1-(2-(3-chloro-4-(6-(1-methylcyclopropoxy)-9-((4-methylpyridin-2-yl)methyl)-9H-purin-8-yl)phenoxy)ethyl)pyrrolidin-2-one] |
| 7.94 nM | Cc1ccnc(Cn2c(-c3ccc(C(=O)N4CC[C@@H](O)C4)cc3Cl)nc3c(OC4(C)CC4)ncnc32)c1 [Example T311, (R)-(3-chloro-4-(6-(1-methylcyclopropoxy)-9-((4-methylpyridin-2-yl)methyl)-9H-purin-8-yl)phenyl)(3-hydroxypyrrolidin-1-yl)methanone] |
| 6.31 nM | Cc1ccnc(Cn2c(-c3ccc(OCC(=O)NC[C@H](C)O)cc3Cl)nc3c(OC4(C)CC4)ncnc32)c1 [Example T372, (S)-2-(3-chloro-4-(6-(1-methylcyclopropoxy)-9-((4-methylpyridin-2-yl)methyl)-9H-purin-8-yl)phenoxy)-N-(2-hydroxypropyl)acetamide] |
| 2.51 nM | CC(CCOc1ccc(-c2nc3c(OC4(C)CC4)ncnc3n2Cc2cc(C(F)(F)F)ccc2F)c(Cl)c1)C(=O)O (racemic) [Example T395, 4-(3-chloro-4-(9-(2-fluoro-5-(trifluoromethyl)benzyl)-6-(1-methylcyclopropoxy)-9H-purin-8-yl)phenoxy)-2-methylbutanoic acid] |
| 6.31 nM | CC(CCCOc1cccc(-c2nc3c(OC4(C)CC4)ncnc3n2Cc2cccc(Cl)c2)c1Cl)C(=O)O (single isomer, unassigned) [Example T443, 5-(2-chloro-3-(9-(3-chlorobenzyl)-6-(1-methylcyclopropoxy)-9H-purin-8-yl)phenoxy)-2-methylpentanoic acid] |
| 39.8 nM | Cc1ccnc(Cn2c(-c3ccc(C(=O)N4CCC[C@H]4C#N)cc3Cl)nc3c(OC4(C)CC4)ncnc32)c1 [Example T404, (S)-1-(3-chloro-4-(6-(1-methylcyclopropoxy)-9-((4-methylpyridin-2-yl)methyl)-9H-purin-8-yl)benzoyl)pyrrolidine-2-carbonitrile] |
| 6.31 nM | CCOc1ccc(Cl)cc1Cn1c(-c2ccc(OCCC(C)C(=O)O)cc2Cl)nc2c(OC3(C)CC3)ncnc21 (racemic) [Example U59, 4-(3-chloro-4-(9-(5-chloro-2-ethoxybenzyl)-6-(1-methylcyclopropoxy)-9H-purin-8-yl)phenoxy)-2-methylbutanoic acid] |
| 10 nM | CC1(Oc2ncnc3c2nc(-c2ccc(OCCN4CCNCC4)cc2C(F)(F)F)n3Cc2cc(Cl)ccn2)CC1 [Example T453, 9-((4-chloropyridin-2-yl)methyl)-6-(1-methylcyclopropoxy)-8-(4-(2-(piperazin-1-yl)ethoxy)-2-(trifluoromethyl)phenyl)-9H-purine] |
| 5.01 nM | COc1ccc(C)cc1Cn1c(-c2ccc(OCC[C@H](C)C(=O)O)cc2Cl)nc2c(OC3(C)CC3)ncnc21 [Example U94, (S)-4-(3-chloro-4-(9-(2-methoxy-5-methylbenzyl)-6-(1-methylcyclopropoxy)-9H-purin-8-yl)phenoxy)-2-methylbutanoic acid] |
| 5.01 nM | CC(C)(CCOc1ccc(-c2nc3c(OC4(C)CC4)ncnc3n2Cc2cccc(Cl)c2)c(Cl)c1)CC(=O)O [Example T562, 5-(3-chloro-4-(9-(3-chlorobenzyl)-6-(1-methylcyclopropoxy)-9H-purin-8-yl)phenoxy)-3,3-dimethylpentanoic acid] |
| 6.31 nM | CC(CCOc1ccc(-c2nc3c(OC4(C)CC4)ncnc3n2Cc2ccccc2C#N)c(Cl)c1)C(=O)O (racemic) [Example T400, 4-(3-chloro-4-(9-(2-cyanobenzyl)-6-(1-methylcyclopropoxy)-9H-purin-8-yl)phenoxy)-2-methylbutanoic acid] |
| 6.31 nM | CC1(Oc2ncnc3c2nc(-c2ccc(OCCN4CCC[C@H]4C(=O)O)cc2Cl)n3Cc2cccc(Cl)c2)CC1 [Example T551, (2-(3-chloro-4-(9-(3-chlorobenzyl)-6-(1-methylcyclopropoxy)-9H-purin-8-yl)phenoxy)ethyl)-L-proline] |
| 7.94 nM | CC(CCCc1ccc(-c2nc3c(OC4(C)CC4)ncnc3n2Cc2ccccc2C#N)c(Cl)c1)C(=O)O (racemic) [Example U12, 5-(3-chloro-4-(9-(2-cyanobenzyl)-6-(1-methylcyclopropoxy)-9H-purin-8-yl)phenyl)-2-methylpentanoic acid] |
| 5.01 nM | Cc1ccnc(Cn2c(-c3ccc(OCCN4CC[C@@H](O)C4)cc3Cl)nc3c(OC4(C)CC4)ncnc32)c1 [Example T512, (R)-1-(2-(3-chloro-4-(6-(1-methylcyclopropoxy)-9-((4-methylpyridin-2-yl)methyl)-9H-purin-8-yl)phenoxy)ethyl)pyrrolidin-3-ol] |
| 6.31 nM | CN(C)CCCOc1ccc(-c2nc3c(OC4(C)CC4)nccc3n2Cc2cc(Cl)ccn2)c(Cl)c1 [Example T377, 3-(3-chloro-4-(1-((4-chloropyridin-2-yl)methyl)-4-(1-methylcyclopropoxy)-1H-imidazo[4,5-c]pyridin-2-yl)phenoxy)-N,N-dimethylpropan-1-amine] |
| 5.01 nM | Cc1ccnc(Cn2c(-c3ccc(CCN4CCC(O)CC4)cc3Cl)nc3c(OC4(C)CC4)ncnc32)c1 [Example T591, 1-(3-chloro-4-(6-(1-methylcyclopropoxy)-9-((4-methylpyridin-2-yl)methyl)-9H-purin-8-yl)phenethyl)piperidin-4-ol] |
| 7.94 nM | C[C@H](CCOc1cccc(-c2nc3c(OC4(C)CC4)ncnc3n2Cc2cc(Cl)ccc2F)c1Cl)C(=O)O [Example U26, (R)-4-(2-chloro-3-(9-(5-chloro-2-fluorobenzyl)-6-(1-methylcyclopropoxy)-9H-purin-8-yl)phenoxy)-2-methylbutanoic acid] |
| 6.31 nM | COc1ccc(C)cc1Cn1c(-c2cccc(OCCCOCC(=O)O)c2Cl)nc2c(OC3(C)CC3)ncnc21 [Example U93, 2-(3-(2-chloro-3-(9-(2-methoxy-5-methylbenzyl)-6-(1-methylcyclopropoxy)-9H-purin-8-yl)phenoxy)propoxy)acetic acid] |
